ChEMBL document CHEMBL1135734, “Side-chain lactam-bridge conformational constraints differentiate the activities of salmon and human calcitonins and reveal a new design concept for potent calcitonin analogues” (J Med Chem, 2002)

Target: T1, Calcitonin receptor (Homo sapiens, UniProt P30988)
T1 sequence (P30988 whole entry): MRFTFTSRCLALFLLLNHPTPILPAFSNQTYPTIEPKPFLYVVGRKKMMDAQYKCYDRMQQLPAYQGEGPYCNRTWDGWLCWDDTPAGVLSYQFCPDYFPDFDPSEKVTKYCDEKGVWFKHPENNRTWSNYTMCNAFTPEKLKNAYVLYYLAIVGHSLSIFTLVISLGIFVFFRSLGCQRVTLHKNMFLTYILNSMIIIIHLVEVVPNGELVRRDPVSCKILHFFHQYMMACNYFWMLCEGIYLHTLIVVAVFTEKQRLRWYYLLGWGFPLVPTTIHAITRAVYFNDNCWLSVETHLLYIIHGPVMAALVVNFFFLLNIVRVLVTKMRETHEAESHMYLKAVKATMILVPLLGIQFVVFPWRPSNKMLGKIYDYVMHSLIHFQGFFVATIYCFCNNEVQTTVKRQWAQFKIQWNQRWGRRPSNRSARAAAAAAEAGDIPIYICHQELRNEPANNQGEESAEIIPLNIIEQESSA
Test: Inhibition of [125I]-salmon calcitonin (sCT) binding to human calcitonin receptor I1 expressed in HEK293 cells
Assay type: cell-based

SMILES: CC[C@H](C)[C@H](NC(=O)[C@H](C)NC(=O)[C@@H](NC(=O)[C@H](CCC(N)=O)NC(=O)[C@@H]1CCCN1C(=O)[C@H](Cc1ccccc1)NC(=O)[C@@H](NC(=O)[C@H](Cc1c[nH]cn1)NC(=O)[C@H](Cc1ccccc1)NC(=O)[C@H](CCCCN)NC(=O)[C@H](CC(N)=O)NC(=O)[C@H](Cc1ccccc1)NC(=O)[C@H](CC(=O)O)NC(=O)[C@H](CCC(N)=O)NC(=O)[C@@H](NC(=O)[C@H](Cc1ccc(O)cc1)NC(=O)[C@@H](NC(=O)CNC(=O)[C@H](CC(C)C)NC(=O)[C@H](CCSC)NC(=O)[C@@H]1CSSC[C@H](N)C(=O)NCC(=O)N[C@@H](CC(N)=O)C(=O)N[C@@H](CC(C)C)C(=O)N[C@@H](CO)C(=O)N[C@@H]([C@@H](C)O)C(=O)N1)[C@@H](C)O)[C@@H](C)O)[C@@H](C)O)[C@@H](C)O)C(=O)NCC(=O)N[C@H](C(=O)NCC(=O)N[C@@H](C)C(=O)N1CCC[C@H]1C(N)=O)C(C)C
- Ki: 42.5 nM
